Measurements as given in paper PMC7201885 (The Journal of General Physiology, 2020).

Chains of the proteins cited; added tags and fusions are not shown. Lines headed by an entry give the natural chain unless they say otherwise; changes in a name come on top.
UniProt A7T1N0: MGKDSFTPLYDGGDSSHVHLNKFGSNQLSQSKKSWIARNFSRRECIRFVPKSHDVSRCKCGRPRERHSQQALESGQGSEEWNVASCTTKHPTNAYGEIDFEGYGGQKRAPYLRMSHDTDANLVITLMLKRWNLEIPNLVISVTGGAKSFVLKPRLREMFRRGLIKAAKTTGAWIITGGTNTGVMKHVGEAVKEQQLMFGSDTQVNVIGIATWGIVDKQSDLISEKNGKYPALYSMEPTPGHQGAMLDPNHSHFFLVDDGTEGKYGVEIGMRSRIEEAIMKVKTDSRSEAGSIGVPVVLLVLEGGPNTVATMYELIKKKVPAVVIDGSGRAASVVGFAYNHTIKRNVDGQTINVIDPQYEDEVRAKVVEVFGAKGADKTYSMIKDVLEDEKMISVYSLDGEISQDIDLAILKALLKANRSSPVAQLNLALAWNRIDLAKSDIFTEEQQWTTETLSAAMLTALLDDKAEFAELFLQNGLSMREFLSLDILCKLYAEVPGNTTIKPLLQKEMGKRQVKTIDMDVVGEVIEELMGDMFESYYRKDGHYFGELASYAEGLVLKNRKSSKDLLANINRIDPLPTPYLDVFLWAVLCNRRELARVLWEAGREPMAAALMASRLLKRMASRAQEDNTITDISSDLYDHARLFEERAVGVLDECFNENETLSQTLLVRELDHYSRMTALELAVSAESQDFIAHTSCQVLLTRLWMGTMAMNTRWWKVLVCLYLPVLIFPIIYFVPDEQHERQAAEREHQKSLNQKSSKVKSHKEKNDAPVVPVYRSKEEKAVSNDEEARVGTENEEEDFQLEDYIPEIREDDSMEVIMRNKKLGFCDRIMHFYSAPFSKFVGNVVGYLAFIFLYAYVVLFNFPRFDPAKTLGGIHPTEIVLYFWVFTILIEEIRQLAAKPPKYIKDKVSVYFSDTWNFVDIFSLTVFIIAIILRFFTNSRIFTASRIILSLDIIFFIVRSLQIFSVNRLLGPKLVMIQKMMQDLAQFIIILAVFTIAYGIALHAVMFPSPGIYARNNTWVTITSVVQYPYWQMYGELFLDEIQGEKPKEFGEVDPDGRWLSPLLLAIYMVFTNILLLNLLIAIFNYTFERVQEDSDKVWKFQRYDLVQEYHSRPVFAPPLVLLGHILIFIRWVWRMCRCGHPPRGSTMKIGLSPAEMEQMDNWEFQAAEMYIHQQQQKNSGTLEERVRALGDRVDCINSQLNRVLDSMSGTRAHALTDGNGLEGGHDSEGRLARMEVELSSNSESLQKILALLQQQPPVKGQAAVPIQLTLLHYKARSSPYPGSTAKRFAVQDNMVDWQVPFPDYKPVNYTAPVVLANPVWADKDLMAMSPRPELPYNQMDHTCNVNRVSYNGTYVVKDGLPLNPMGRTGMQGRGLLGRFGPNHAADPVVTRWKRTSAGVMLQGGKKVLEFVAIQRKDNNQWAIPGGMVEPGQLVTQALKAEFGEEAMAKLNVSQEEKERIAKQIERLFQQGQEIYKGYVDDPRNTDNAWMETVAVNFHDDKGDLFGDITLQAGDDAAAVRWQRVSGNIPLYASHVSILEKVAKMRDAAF

Columns and labels:
hsTRPM2 = details: ref Moreau et al., 2013; cited from earlier work
nvTRPM2 = nvTRPM2 (Nematostella vectensis, UniProt A7T1N0); assay: Inside-out patch-clamp, full-length; type: cell-based

Nc1ncnc2c1nc(Br)n2[C@@H]1O[C@H](COP(=O)(O)OP(=O)(O)OC[C@H]2O[C@H](O)C(O)[C@H]2O)C(O)[C@@H]1O (some centres unmarked) [Br-ADPR, 8-Br-ADPR]
Mode of action on hsTRPM2 (hsTRPM2): specific hsTRPM2 inhibitor | Mode of action on nvTRPM2 (nvTRPM2; 125 µM Ca2+, compared with ADPR): partial agonist | Hill coefficient nH for channel activation (nvTRPM2; full-length nvTRPM2, 125 µM Ca2+): 1.6 ± 0.2 | EC50 (nvTRPM2; read-out: EC50 for nvTRPM2 channel activation, full-length nvTRPM2, 125 µM cytosolic Ca2+, Hill fit, −20 mV): ~30 µM and 31.9 µM | Maximal fractional activation (nvTRPM2; relative to current in 100 µM ADPR, 125 µM Ca2+): 0.29 ± 0.01 and ~0.3

“And” between values parts separate entries of the source, which are not always exact repeats. Equal values may be shown once.
